Where two headings read alike, the source gives them in different places. Marks after values point to notes of the source that are not given here.
Tested on: S. Typhimurium
Conditions: with cold plasma

With OO [H2O2, hydrogen peroxide] the “Reductions of S. Typhimurium” value (Granny Smith apple skins, treatment time 8 s + 30 min dwell, listed as ionized hydrogen peroxide) was 5.18 ± 0.19^a log CFU/piece, the “Reductions of S. Typhimurium” value (Granny Smith apple skins, treatment time 10 s + 30 min dwell) was 4.86 ± 0.58^a log CFU/piece and the “Reductions of S. Typhimurium” value (grape tomato surfaces, treatment time 8 s + 30 min dwell, listed as ionized hydrogen peroxide) was 5.21 ± 0.49^a log CFU/piece.

Reference: patent US20200345021A1, “METHOD AND SYSTEM FOR ENHANCING THE EFFICACY USING IONIZED/A[…] PEROXIDE IN REDUCING MICROBIAL POPULATIONS, METHOD OF USE THEREOF” (priority 2019, published 2020)
